The nature of this series: Neuropathological and neurobehavioral effects of intracerebral/intrathecal amiloride infusion in rats. The note with it: amiloride infusion 276 pmol/24 h.

In the case of `N=C(N)NC(=O)c1nc(Cl)c(N)nc1N` [Amiloride, 3,5-diamino-6-chloro-N-(diaminomethylene)pyrazinecarboxamide], the “Animals with intermittent seizures” value is reported as 3 of 8 and the Premature deaths result is recorded as “no premature deaths”.

Values taken from patent US7863415B2 (The Regents of the University of California, priority 2004, dated 2011).
